This is an account of results in patent publication US20180193365A1, “USE OF HYDROGEN SULFIDE TO PREVENT LENS OPACIFICATION” (Creighton University, priority 2017, published 2018).

For this experiment, the system named is superoxide dismutase (SOD) enzyme. Particulars: 50 mM; 120 hours.

As to `OO` [H2O2, hydrogen peroxide], the “attenuation of SOD content compared to untreated lenses (time=0 hours)” value is 86.59%.
